## Measured affinities in a library of Ab-95 light chain variants

All variants were tested on one target, the spike HR2 peptide PDVDLGDISGINAS (SARS-CoV-2).

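Phage display of a naive human antibody library on the peptide gave the parent. Variants in AAYL52 differ from the parent at up to three CDR positions; double and triple changes were sampled at random. AlphaSeq pools MATa yeast showing the antibodies with MATalpha yeast showing the peptide. Mating (16 h, 30 °C) was followed by selection of diploids and sequencing of their barcodes. Read counts were normalised to the haploid input and turned into Kd by a linear fit to BCL2-family pairs of known affinity, for each replicate. The assay was run in three technical replicates.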

Parent: Ab-95, a human scFv built as VH, three GGGGS repeats, VL. Only the CDRs of the light chain vary.
VH: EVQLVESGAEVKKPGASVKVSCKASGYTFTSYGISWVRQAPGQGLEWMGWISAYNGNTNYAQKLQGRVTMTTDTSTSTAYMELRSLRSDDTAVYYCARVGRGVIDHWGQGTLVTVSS
VL: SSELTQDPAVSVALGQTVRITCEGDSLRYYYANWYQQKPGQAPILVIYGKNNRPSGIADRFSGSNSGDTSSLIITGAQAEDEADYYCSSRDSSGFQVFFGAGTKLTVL

Substitutions are numbered in sequence along the VL above, starting at 1 (not Kabat).
All variants listed here change S89 of the VL, counted from its first residue.
Scale: log10 of Kd in nM, estimated from mating counts; low values are strong binders.
"nd" means that the variant was in the library but no mating with the target was seen in that replicate; the authors take this as a sign of poor binding, and no number exists.
Parent in this assay: reference entry 2.31, copy in this library 2.25.

R53W+S89A+F95I: nd, nd, nd.
E23L+S89D+F95K: 4.58, nd, nd.
N51L+S89D+V97K: nd, nd, nd.
E23R+S89P+V97P: 2.73, 2.45, 2.40.
S55K+S89Y: nd, nd, nd.
G49C+S89T: nd, nd, 4.10.
D25Q+S89G+G94D: 3.06, 2.54, 2.89.
S89H+S93N+Q96D: 2.62, 2.25, 1.98.
L27Y+K50N+S89T: nd, nd, nd.
E23S+N33S+S89F: nd, nd, 4.30.
R28P+N33M+S89H: 4.12, 3.48, 4.63.
Y29T+R53M+S89R: 4.85, 5.81, nd.
G24Q+S89P+D91P: nd, nd, nd.
S89V+R90Y+F95V: nd, 3.28, 2.90.
S26V+S55V+S89P: 3.50, 4.55, 3.49.
L27F+S89G: 2.95, 3.68, 3.36.
Y31W+N33A+S89D: nd, nd, nd.
R53P+S89L+D91Y: 3.38, nd, nd.
K50A+S55T+S89M: 3.88, 3.89, nd.
K50H+S89A+V97N: 2.79, 2.61, 2.36.
R28K+N33C+S89R: 4.96, 4.11, nd.
N33H+S89R: 4.44, 4.55, 2.96.
S89E+S92R+V97H: nd, nd, nd.
R53G+S55T+S89C: 3.35, 3.88, nd.
P54V+S55D+S89T: 2.25, 2.16, 2.16.
Y31W+S89A+G94Q: 3.11, 2.67, 2.28.
E23N+R28P+S89K: 3.22, 3.05, 2.88.
S26T+S89Y+S93G: nd, nd, nd.
E23P+S26Y+S89F: 4.85, 3.89, 4.42.
Y31P+P54L+S89E: 2.73, 2.16, 1.85.
D25I+S89I+R90V: 3.00, 3.01, 3.63.
N51P+S89V+S92R: nd, nd, nd.
S26G+S89K+S93N: 2.10, 2.62, 2.26.
K50W+S89E+R90W: nd, 4.95, nd.
S89W+S92V+S93N: 2.47, 2.31, 2.47.
N52I+S89A+S93R: 2.74, 2.40, 2.03.
N33W+N52A+S89R: 4.04, 4.34, nd.
K50F+N51K+S89F: 3.98, 4.24, nd.

For reference, 6 entries of the list once more:

The variant Y31W+N33A+S89D gave nd, nd, nd.
The variant P54V+S55D+S89T gave 2.25, 2.16, 2.16.
The variant N51L+S89D+V97K gave nd, nd, nd.
The variant S55K+S89Y gave nd, nd, nd.
The variant N33H+S89R gave 4.44, 4.55, 2.96.
The variant N52I+S89A+S93R gave 2.74, 2.40, 2.03.

Background: pairings of library AAYL52 with three empty control strains gave a value in 28% of cases (median 3.91, 5th percentile 2.90). Values in that range, when seen in few replicates, are hard to tell from nonspecific mating.

The measurements come from Engelhart et al. 2022 (doi:10.1038/s41597-022-01779-4) through the FLAb antibody collection.